# Measurements reported in PubChem BioAssay AID1717 (Vanderbilt High Throughput Screening Facility, 2009).
# By UniProt entry, the sequences of proteins in these tests, tags left out. Where a name states a change or a piece, a line headed by the entry shows the natural chain unless it says otherwise.
# UniProt Q9H2X9: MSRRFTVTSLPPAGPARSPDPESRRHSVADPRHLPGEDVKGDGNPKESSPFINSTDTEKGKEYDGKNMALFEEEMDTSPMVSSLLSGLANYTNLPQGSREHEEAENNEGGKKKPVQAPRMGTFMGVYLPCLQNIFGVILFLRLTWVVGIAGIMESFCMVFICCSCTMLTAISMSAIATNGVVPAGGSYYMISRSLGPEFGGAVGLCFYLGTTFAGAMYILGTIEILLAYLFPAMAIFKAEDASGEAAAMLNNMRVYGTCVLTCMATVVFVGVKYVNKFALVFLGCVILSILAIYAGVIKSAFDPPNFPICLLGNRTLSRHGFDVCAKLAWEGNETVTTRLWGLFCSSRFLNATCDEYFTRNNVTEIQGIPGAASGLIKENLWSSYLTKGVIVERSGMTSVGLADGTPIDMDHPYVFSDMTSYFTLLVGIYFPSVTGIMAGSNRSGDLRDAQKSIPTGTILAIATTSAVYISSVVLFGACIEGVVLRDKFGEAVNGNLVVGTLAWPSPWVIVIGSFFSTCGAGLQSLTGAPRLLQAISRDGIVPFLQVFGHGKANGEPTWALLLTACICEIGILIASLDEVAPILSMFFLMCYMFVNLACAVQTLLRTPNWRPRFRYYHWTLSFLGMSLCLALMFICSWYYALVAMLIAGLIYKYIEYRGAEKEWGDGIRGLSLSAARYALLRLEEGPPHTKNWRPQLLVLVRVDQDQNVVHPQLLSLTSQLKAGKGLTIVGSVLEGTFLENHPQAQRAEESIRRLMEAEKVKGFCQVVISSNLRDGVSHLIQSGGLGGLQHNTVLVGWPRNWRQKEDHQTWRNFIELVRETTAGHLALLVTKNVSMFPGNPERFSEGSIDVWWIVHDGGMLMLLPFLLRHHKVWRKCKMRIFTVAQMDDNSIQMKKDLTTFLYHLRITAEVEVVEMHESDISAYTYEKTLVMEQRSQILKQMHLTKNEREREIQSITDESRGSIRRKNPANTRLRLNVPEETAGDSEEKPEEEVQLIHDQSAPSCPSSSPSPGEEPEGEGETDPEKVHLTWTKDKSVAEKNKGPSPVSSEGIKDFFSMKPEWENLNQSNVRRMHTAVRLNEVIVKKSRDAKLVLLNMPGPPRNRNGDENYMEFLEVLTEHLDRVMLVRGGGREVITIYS
# The entries are a selection whose mix differs from that of the whole data set. Inconclusive results are not listed. Calls of active or inactive are those of the source.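 Rule for the calls: active = thallium flux slope beyond 3 SD from same-plate DMSO control mean in most replicates, usually higher, sometimes lower; inconclusive = repeat tests gave conflicting results; inactive = no significant difference from controls in most replicates.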
# Target: Solute carrier family 12 member 5 (Homo sapiens) (UniProt Q9H2X9)
# Test: modulation of KCC2 thallium flux in HEK cells – cell-based, ouabain, retest, confirmation (AID 1717);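 note: slope of initial-normalized fluorescence between seconds 10 and 20 after thallium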
# Conditions: HEK293-KCC2, thallium flux FluoZin2 fluorescence, at 10 µM, bidirectional: low = inhibitor, high = activator
row,Compound,"raw Tl+ flux slope (below DMSO = inhibition, above = activation)"
1,O=c1c2cc([N+](=O)[O-])ccc2[nH]c2c([N+](=O)[O-])cc([N+](=O)[O-])cc12,active: 0.0263
2,C[N+]1=C2C=CC=CC=C2SC12C([N+](=O)[O-])=CC([N+](=O)[O-])=C[C-]2[N+](=O)[O-] (stereo not drawn),active: 0.0285
3,O=P(Nc1nc2ccc(Cl)cc2s1)(c1ccccc1)c1ccccc1,active: 0.023
